Source: US20230381237A1, “CHIMERIC ANTIGEN RECEPTOR (CAR) T-CELL ADJUVANT THERAPIES” (priority 2022, published 2023)

Assay: Phase 1 multiple ascending, repeat-dosing study in healthy volunteers
Settings: healthy volunteers (Phase 1a)

CC#CC[C@H](C)[C@H](O)/C=C/[C@@H]1[C@H]2c3cccc(CCCC(=O)[O-])c3O[C@H]2C[C@H]1O.[Na+] [CTO1681, (+)-[1R, 2R, 3aS, 8bS]-2,3,3a,8b-tetrahydro-2-hydroxy-1-[(E)-(3S,4S)-3-hydroxy-4-methyl-1-octen-6-ynyl)-1Hcyclopenta[b]benzofuran-5-butanoic acid, monosodium salt]
Safety profile: tolerable safety profile
